In patent US10023570B2 (Array BioPharma, Inc., priority 2015, dated 2018) one finds IC50 data, which are given here for eight compounds.

By UniProt entry, the sequences of proteins in these tests, tags left out. Residues count along the entry.
UniProt P07949, 658-1114: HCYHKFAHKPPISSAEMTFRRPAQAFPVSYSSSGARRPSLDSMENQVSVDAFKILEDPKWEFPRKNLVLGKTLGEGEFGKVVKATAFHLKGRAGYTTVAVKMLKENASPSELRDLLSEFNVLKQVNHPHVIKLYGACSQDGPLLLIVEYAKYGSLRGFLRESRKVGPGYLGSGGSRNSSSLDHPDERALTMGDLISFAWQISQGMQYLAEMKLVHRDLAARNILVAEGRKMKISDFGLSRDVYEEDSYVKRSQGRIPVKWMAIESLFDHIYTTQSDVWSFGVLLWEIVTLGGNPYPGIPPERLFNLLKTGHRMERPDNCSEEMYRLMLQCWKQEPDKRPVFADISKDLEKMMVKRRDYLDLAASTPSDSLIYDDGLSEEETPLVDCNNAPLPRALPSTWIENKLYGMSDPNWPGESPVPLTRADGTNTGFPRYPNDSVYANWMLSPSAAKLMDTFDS
UniProt P07949, 29-1114 limits assumed: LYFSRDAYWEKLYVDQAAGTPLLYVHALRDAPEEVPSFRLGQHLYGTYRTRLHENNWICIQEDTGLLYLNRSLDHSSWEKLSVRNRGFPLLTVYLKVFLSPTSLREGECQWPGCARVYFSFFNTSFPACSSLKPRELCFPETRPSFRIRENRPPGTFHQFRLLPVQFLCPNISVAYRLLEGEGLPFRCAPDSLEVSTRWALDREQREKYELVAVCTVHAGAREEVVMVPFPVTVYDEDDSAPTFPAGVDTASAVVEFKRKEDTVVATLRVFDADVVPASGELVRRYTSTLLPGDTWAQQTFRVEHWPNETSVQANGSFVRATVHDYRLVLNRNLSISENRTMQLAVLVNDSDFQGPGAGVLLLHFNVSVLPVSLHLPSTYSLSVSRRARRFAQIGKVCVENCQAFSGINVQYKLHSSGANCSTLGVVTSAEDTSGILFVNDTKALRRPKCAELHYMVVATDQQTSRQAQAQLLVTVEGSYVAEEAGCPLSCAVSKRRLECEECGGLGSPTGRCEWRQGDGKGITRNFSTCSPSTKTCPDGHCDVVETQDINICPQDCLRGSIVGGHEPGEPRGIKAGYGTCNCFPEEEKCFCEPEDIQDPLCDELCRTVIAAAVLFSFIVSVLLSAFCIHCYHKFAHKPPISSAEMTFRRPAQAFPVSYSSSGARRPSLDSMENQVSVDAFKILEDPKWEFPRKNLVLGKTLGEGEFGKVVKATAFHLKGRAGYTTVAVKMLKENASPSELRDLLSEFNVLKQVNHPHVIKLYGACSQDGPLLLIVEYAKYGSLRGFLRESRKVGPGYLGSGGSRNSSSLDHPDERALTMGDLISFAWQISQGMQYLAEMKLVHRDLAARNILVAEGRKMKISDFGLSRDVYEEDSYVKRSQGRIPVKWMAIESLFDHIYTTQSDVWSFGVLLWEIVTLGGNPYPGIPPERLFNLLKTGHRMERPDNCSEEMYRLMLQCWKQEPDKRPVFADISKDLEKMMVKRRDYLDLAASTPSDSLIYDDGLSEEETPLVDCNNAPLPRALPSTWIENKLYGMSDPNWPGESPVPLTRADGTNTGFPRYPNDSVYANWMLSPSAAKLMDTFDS
UniProt P35968, 20-1356: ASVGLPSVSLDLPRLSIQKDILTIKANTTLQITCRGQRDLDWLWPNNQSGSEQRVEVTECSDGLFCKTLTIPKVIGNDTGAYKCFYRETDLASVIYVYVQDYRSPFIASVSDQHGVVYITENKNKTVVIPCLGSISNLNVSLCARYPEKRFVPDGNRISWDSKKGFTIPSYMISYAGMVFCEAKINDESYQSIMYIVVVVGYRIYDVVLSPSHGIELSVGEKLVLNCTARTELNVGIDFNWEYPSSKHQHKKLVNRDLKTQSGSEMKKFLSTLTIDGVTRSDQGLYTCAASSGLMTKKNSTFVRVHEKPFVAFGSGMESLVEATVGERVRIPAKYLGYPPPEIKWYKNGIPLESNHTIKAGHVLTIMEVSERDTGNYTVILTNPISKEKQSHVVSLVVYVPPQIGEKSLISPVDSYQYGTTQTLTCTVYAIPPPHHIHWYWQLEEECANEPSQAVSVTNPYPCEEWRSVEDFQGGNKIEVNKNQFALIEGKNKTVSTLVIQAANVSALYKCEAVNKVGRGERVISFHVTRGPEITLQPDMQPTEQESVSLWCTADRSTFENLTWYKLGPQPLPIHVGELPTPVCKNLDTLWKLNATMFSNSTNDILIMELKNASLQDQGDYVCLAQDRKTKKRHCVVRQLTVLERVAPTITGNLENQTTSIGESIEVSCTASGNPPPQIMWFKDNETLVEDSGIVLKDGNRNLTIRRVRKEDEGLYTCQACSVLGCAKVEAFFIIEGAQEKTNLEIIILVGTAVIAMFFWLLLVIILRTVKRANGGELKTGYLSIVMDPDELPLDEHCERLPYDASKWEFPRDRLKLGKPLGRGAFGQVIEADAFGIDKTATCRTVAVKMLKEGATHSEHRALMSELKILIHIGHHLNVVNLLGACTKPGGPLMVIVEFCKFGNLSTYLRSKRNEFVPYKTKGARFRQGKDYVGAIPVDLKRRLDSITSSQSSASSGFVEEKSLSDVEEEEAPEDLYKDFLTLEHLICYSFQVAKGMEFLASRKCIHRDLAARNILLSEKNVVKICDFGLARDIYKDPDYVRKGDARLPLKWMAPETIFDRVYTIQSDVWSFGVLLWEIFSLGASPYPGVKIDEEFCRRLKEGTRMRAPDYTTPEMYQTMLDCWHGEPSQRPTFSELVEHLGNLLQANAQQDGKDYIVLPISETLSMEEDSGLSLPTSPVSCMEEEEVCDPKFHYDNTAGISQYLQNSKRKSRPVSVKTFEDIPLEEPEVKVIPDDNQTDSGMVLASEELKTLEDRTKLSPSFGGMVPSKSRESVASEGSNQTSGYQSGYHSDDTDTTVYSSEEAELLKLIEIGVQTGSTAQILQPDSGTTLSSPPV

The target of assay [1] is N-terminal GST tagged recombinant human RET cytoplasmic domain (aa 658-end), wild type RET kinase (Homo sapiens (Human), UniProt P07949). As to the kind of experiment: RET Enzyme Assay (HTRF KinEASE-TK), wild type RET. The format is biochemical. (In general: TR-FRET usually uses a lanthanide donor and a delayed reading to cut background.)
Assay [2] concerns the target Kif5b-RET fusion protein in HEK-293 cells (Homo sapiens, UniProt P07949). Put plainly: cell-based.
Assay [3] has as its target human KDR protein in HEK-293 cells (Homo sapiens (Human), UniProt P35968). As to the kind of experiment: KDR Cell Assay (phospho-KDR in HEK-293 cells expressing inducible KDR). To be noted: pKDR Cell HEK 10% FBS IC50. The format is cell-based.

Where a name gives a salt, the structure may show the parent alone. Read-outs that look alike come from different tables or passages of the source.

As to `Cn1cc(-c2cc(-c3ccc(N4CCN(S(C)(=O)=O)CC4)nc3)c3c(C#N)cnn3c2)cn1` [Example 88], the IC50 (in general, the concentration that inhibits the measured activity by half) in assay [1] (wild type RET, 1 mM ATP) is 9.8 nM; in assay [2] it was 43.3 nM.
For `CC(C)CS(=O)(=O)N1CCN(c2ccc(-c3cc(-c4cnn(C)c4)cn4ncc(C#N)c34)cn2)CC1` [Example 90], the IC50 in assay [1] (wild type RET, 1 mM ATP) amounted to 5.2 nM; in assay [2] it was 4.3 nM.
Taken in the same sequence, the figures for `CN(C)C(=O)N1CCN(c2ccc(-c3cc(-c4cnn(C)c4)cn4ncc(C#N)c34)cn2)CC1` [Example 132] were 11.2 nM and 16.1 nM.
The matching figures for `CC(C)N(C)C(=O)C1CCN(c2ccc(-c3cc(-c4cnn(C)c4)cn4ncc(C#N)c34)cn2)CC1` [Example 247, 1-(5-(3-cyano-6-(1-methyl-1H-pyrazol-4-yl)pyrazolo[1,5-a]pyridin-4-yl)pyridin-2-yl)-N-isopropyl-N-methylpiperidine-4-carboxamide]: 48.1 nM and 167 nM.
As to `CC(C)N1CCN(c2ccc(-c3cc(-c4cnn(C)c4)cn4ncc(C#N)c34)cn2)CC1` [Example 410, 4-(6-(4-isopropylpiperazin-1-yl)pyridin-3-yl)-6-(1-methyl-1H-pyrazol-4-yl)pyrazolo[1,5-a]pyridine-3-carbonitrile], the IC50 in assay [1] (wild type RET, 1 mM ATP) came out at 38.4 nM; in assay [2] it was 104 nM.
As for `C[C@H](c1ccccc1)N1CCN(c2ccc(-c3cc(-c4cnn(C)c4)cn4ncc(C#N)c34)cn2)CC1` [Example 421, (R)-6-(1-methyl-1H-pyrazol-4-yl)-4-(6-(4-(1-phenylethyl)piperazin-1-yl)pyridin-3-yl)pyrazolo[1,5-a]pyridine-3-carbonitrile dihydrochloride], the IC50 in assay [1] came to 18 nM; in assay [2] it was 11 nM.
Regarding `C[C@@H](c1ccccc1)N1CCN(c2ccc(-c3cc(-c4cnn(C)c4)cn4ncc(C#N)c34)cn2)CC1` [Example 422, (S)-6-(1-methyl-1H-pyrazol-4-yl)-4-(6-(4-(1-phenylethyl)piperazin-1-yl)pyridine-3-yl)pyrazolo[1,5-a]pyridine-3-carbonitrile dihydrochloride], the IC50 in assay [2] stood at 13.1 nM.
In assay [3], `CC(C)(C)OC(=O)N1CC(n2cc(-c3cc(-c4ccc(N5CCN(Cc6ccccc6)CC5)nc4)c4c(C#N)cnn4c3)cn2)C1` [Example 594, tert-butyl 3-(4-(4-(6-(4-benzylpiperazin-1-yl)pyridin-3-yl)-3-cyanopyrazolo[1,5-a]pyridine-6-yl)-1H-pyrazol-1-yl)azetidine-1-carboxylate] came in with an IC50 of 762 nM.
